According to article PMC11602988 (The Journal of Biological Chemistry, 2024):
Residue numbers refer to the chain shown, from its start. Where two headings read alike, the source gives them in different places.

Tests used:
[1] = biological target: T1, OCT1 Phe244Ala variant (Homo sapiens, UniProt O15245, F244A); assay: Uptake screening (transport ratio over empty vector), HEK293 cells overexpressing OCT1 Phe244Ala variant; format: cell-based; design: expressed in transfected cells;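 note: stably transfected HEK293 cells, intracellular substrate quantified by HPLC-tandem mass spectrometry in cell lysates, uptake in HBSS+ buffer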
T1 sequence (O15245 1-554 F244A): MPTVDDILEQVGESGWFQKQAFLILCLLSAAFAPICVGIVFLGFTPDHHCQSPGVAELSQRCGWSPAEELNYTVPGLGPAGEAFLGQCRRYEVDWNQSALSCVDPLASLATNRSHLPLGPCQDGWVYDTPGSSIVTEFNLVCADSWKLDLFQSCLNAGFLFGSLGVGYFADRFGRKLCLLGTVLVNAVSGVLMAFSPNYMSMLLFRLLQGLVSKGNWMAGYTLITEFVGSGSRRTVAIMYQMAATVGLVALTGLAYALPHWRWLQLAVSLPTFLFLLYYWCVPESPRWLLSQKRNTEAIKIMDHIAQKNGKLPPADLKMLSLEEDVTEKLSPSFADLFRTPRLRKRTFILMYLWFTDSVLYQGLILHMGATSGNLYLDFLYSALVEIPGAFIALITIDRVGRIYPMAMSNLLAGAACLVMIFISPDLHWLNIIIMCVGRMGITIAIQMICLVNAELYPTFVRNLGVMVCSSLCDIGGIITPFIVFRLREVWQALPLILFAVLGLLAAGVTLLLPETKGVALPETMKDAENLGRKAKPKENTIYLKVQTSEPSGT

[2] = biological target: T2, OCT1 WT (Homo sapiens, UniProt O15245); assay: Uptake screening (transport ratio over empty vector), HEK293 cells overexpressing OCT1 WT; format: cell-based; design: expressed in transfected cells;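 note: intracellular substrate levels quantified by HPLC–tandem mass spectrometry after uptake in HBSS+ buffer at 37 °C, stable Flp-In HEK293 lines, fold change versus empty vector–transfected cells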
T2 sequence (O15245 1-554): T1 sequence (O15245 1-554 F244A) with A244F

[3] = Phe244Ala uptake relative to OCT1 WT
[4] = uptake ratio of OCT1 Phe244Ala-overexpressing HEK293 cells over empty vector
[5] = uptake ratio of OCT1 WT-overexpressing HEK293 cells over empty vector

Compound | relative_Phe244Ala_uptake_in% [1, 3] [%] | Mean_transport_ratio_Phe244Ala [1, 4] | Mean_transport_ratio_WT [2, 5] | also measured
Minoxidil | -22.518 | 0.941 | 1.261 | 
CNCCc1ccc(O)c(O)c1 [Deoxyepinephrine] |  |  |  | Mean_transport_ratio_Phe244Ala ([1]; uptake ratio over empty vector, HEK293 cells overexpressing OCT1 Phe244Ala): 1.257
CCN1CCCC1CNC(=O)c1cc(S(N)(=O)=O)ccc1OC (stereo not shown) [Sulpiride] | 165.426 |  |  | Mean_transport_ratio_Phe244Ala [1]: 12.736; Mean_transport_ratio_WT ([2]; uptake ratio over empty vector, HEK293 cells overexpressing OCT1 WT): 8.095
C[N+]1(C)[C@@H]2CC(OC(=O)[C@H](CO)c3ccccc3)C[C@H]1[C@@H]1O[C@@H]12 (stereo partly shown) [Mehylscopolamine] |  | 31.927 |  | relative_Phe244Ala_uptake_in% [1]: 120.735%; Mean_transport_ratio_WT [2]: 26.616
CN(C)c1ccc2nc3ccc(=[N+](C)C)cc-3sc2c1 [Methylene blue] | 39.158 | 1.637 | 2.628 | 
